High-throughput results as filed in PubChem.
In the library only some 16% were active in any assay of this set; here they are far more common.
TDP1 cell noCPT = qHTS for Inhibitors of human tyrosyl-DNA phosphodiesterase 1 (TDP1): qHTS in cells in absence of CPT | DT40 Tdp1-/- hTDP1 cells, no CPT, ATP luminescence, 48 h | Potency, µM (top dose mostly 46.2 µM), usual class: inhibitors | 15% of 420,000 active | AID 686978, 2013; also: nearly all actives have a fitted effect of over 55% in size
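Seeded 400 DT40-hTDP1 cells/well (vehicle DMSO, no 20 nM CPT); pinned compounds; ≥48 hr at 37 °C; CellTiter-Glo luminescence as viability measure.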
TDP1 cell CPT = growth inhibition of DT40 Tdp1-/-;hTDP1 cells with camptothecin (screen for TDP1 inhibitors). 12% of 420,000 active. chicken DT40 Tdp1-/-;hTDP1 cells + 20 nM CPT, ATP luminescence, 48 h. Potency, µM (highest dose often 46.2 µM), most hits filed as inhibitors; also: nearly all actives have a fitted effect of over 55% in size
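Chicken DT40 Tdp1-/- cells stably complemented with human TDP1 were seeded at 400 cells/well in medium containing 20 nM camptothecin, exposed to pin-transferred compounds, and grown at 37 °C for at least 48 hr. Viability was read as ATP luminescence.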
TDP1 block = inhibitors of human tyrosyl-DNA phosphodiesterase TDP1. Q9NUW8. recombinant TDP1, AlphaScreen DNA substrate cleavage. Potency, µM (top dose mostly 130 µM), hits mostly inhibitors. 0.28% of 350,000 active. AID 485290; also: nearly all actives have a fitted effect of over 40% in size
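Steps: enzyme plus compound, 15 min RT; add biotin/phosphotyrosine-FITC oligonucleotide (15 nM final), react 5 min; add donor/acceptor beads (10 ug/ml final), 10 min; read AlphaScreen. Tdp1 at 1 nM final.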
uPA surface inh = blocks generation of uPA at the cell surface | 0.31% of 330,000 active | cell surface uPA generation assay, qHTS | Potency, µM (series often up to 38.3 µM), hits mostly inhibitors | AID 540303; active = well fitted inhibition curve with a large enough effect; inconclusive = small, poorly fitted or top-dose-only effect; inactive = no such curve, though single readings can be large or run the other way; tested in mouse RAW 264.7 cells; also: nearly all actives have a fitted effect of over 55% in size
miR-21 reporter = miR-21 reporter, rising signal | HeLa miR-21 FLuc reporter, luciferase, 48 h | Potency, µM (doses to about 38.3 µM) | 340,000 tested, under 10 active | AID 2288; active = well fitted rising curve with a large enough effect; inconclusive = small, poorly fitted or top-dose-only effect; inactive = no such curve, though single readings can be large or run the other way;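 note: miR-21 action dims this reporter so a rising signal means less miR-21 action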
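Using DMEM plus 10% FBS, HeLa miR-21-FLuc cells are incubated with test compounds (final up to about 40uM) for 48 hours; firefly luciferase signal is then imaged following reagent-mediated lysis.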
Numbers stand for hits. Unless noted, calls follow the shape of the dose curve; as a rule, active = well fitted curve in the direction sought with a large enough effect; inconclusive = small, poorly fitted or top-dose-only effect, or another doubt; inactive = no such curve, though single readings can be large; an effect the other way counts as inactive or inconclusive.

Screening CCOc1ccc(C2=CS/C(=C(\C#N)c3nnc4n3CCCCC4)N2CC)cc1 returned TDP1 cell noCPT 23µM, TDP1 cell CPT inconclusive, TDP1 block inactive, uPA surface inh inactive and miR-21 reporter inactive.
O=C(NC1CC(=O)N(c2cccc(F)c2)C1)c1ccc2c(c1)OCO2 (configuration not stated) was read as TDP1 cell noCPT inactive, TDP1 cell CPT inactive, TDP1 block inactive and miR-21 reporter inactive.
CSCCC(NC(=O)c1ccccc1Cl)C(=O)NCc1ccncc1 (configuration not stated) was read as TDP1 cell noCPT inactive, TDP1 cell CPT inactive, TDP1 block inactive and uPA surface inh inactive.
For CCOc1cc(CNC(C)(C)CO)cc(Br)c1OCc1ccc(Cl)cc1Cl the results were TDP1 cell noCPT 21µM, TDP1 cell CPT 21µM, TDP1 block inactive, uPA surface inh inactive and miR-21 reporter inconclusive.
`CCOc1cc(CNCCO)cc(Br)c1OCc1ccc(Cl)cc1` gave TDP1 cell noCPT inconclusive, TDP1 cell CPT 26µM, TDP1 block inactive, uPA surface inh inactive and miR-21 reporter inconclusive.
For CCOc1cccc(CNCCO)c1OCc1ccc(Cl)cc1 the results were TDP1 cell noCPT inconclusive, TDP1 cell CPT inconclusive, TDP1 block inactive, uPA surface inh inactive and miR-21 reporter inactive.
`CCCCOc1c(Cl)cc(CNC(C)(C)CO)cc1OCC` gave TDP1 cell noCPT inactive, TDP1 cell CPT inconclusive, TDP1 block inactive, uPA surface inh inactive and miR-21 reporter inactive.
`CCOC(=O)c1c(C)oc2c(F)c(F)c(F)c(F)c2c1=O` gave TDP1 cell noCPT 21µM, TDP1 cell CPT 16µM, TDP1 block inactive, uPA surface inh inactive and miR-21 reporter inactive.
`COc1cccc(NC(=O)NNC(=O)CN2C(=O)COc3ccccc32)c1` gave TDP1 cell noCPT inconclusive, TDP1 cell CPT inactive, TDP1 block inactive, uPA surface inh inactive and miR-21 reporter inactive.
Screening O=C(OCc1ccccc1F)c1cnc(Cl)c(Cl)c1 returned TDP1 cell noCPT inactive, TDP1 cell CPT inactive, TDP1 block 89µM, uPA surface inh inactive and miR-21 reporter inactive.
Screening O=C(OCc1c(F)cccc1Cl)c1cnc(Cl)c(Cl)c1 returned TDP1 cell noCPT inactive, TDP1 cell CPT inactive, uPA surface inh inactive and miR-21 reporter inactive.
For CCOC(=O)C1=C(N)Oc2c(c(=O)[nH]c3ccccc23)C1c1ccccc1 (configuration not stated) the results were TDP1 cell noCPT 13µM, TDP1 cell CPT 23µM, TDP1 block inactive and miR-21 reporter inactive.
Screening CCOC(=O)C1=C(N)Oc2ccc3ccccc3c2C1c1cccc(O)c1 (configuration not stated) returned TDP1 cell noCPT inconclusive, TDP1 cell CPT inactive, uPA surface inh inactive and miR-21 reporter inactive.
For O=C(CCSCc1cccc(F)c1)NCc1ccc(F)cc1 the results were TDP1 cell noCPT 18µM, TDP1 cell CPT inconclusive, uPA surface inh inactive and miR-21 reporter inactive.
`O=C(CSCc1cccc(F)c1)NCc1ccccc1` gave TDP1 cell noCPT inactive, TDP1 cell CPT inactive, TDP1 block inactive, uPA surface inh inactive and miR-21 reporter inactive.
O=C(CCSCc1cccc(Cl)c1)NCc1ccccc1Cl was read as TDP1 cell noCPT 26µM, TDP1 cell CPT inconclusive, TDP1 block inactive and miR-21 reporter inactive.
For O=C(c1csnn1)N1CCC2(CCCN(c3ccncc3)C2)CC1 the results were TDP1 cell noCPT inconclusive and TDP1 cell CPT inactive.
`CCOC(=O)c1sc2ccccc2c1S(=O)(=O)Nc1ccc(CC)cc1` gave TDP1 cell noCPT 23µM, TDP1 cell CPT inconclusive, TDP1 block inactive and miR-21 reporter inactive.
`C=CCc1ccc(OCCCNCc2ccccc2)c(OC)c1` gave TDP1 cell noCPT inconclusive, TDP1 cell CPT inconclusive, uPA surface inh inactive and miR-21 reporter inactive.
For C=CCc1ccccc1OCCNCc1ccccc1 the results were TDP1 cell noCPT 16µM, TDP1 cell CPT inconclusive, TDP1 block inactive, uPA surface inh inactive and miR-21 reporter inactive.
For CCOc1ccccc1NC(=O)CN(c1cc(C)cc(C)c1)S(=O)(=O)c1c(C)nn(C)c1C the results were TDP1 cell noCPT 21µM, TDP1 cell CPT 21µM, TDP1 block inactive and miR-21 reporter inactive.
Screening CCOC(=O)c1ccc(NC(=O)CN(c2ccc(C)cc2)S(=O)(=O)c2c(C)nn(C)c2C)cc1 returned TDP1 cell noCPT inconclusive, TDP1 cell CPT 23µM, TDP1 block inactive, uPA surface inh inactive and miR-21 reporter inactive.
For Cc1cc(C)cc(N(CC(=O)Nc2c(C)cc(C)cc2C)S(=O)(=O)c2c(C)nn(C)c2C)c1 the results were TDP1 cell noCPT inconclusive, TDP1 cell CPT inconclusive, TDP1 block inactive and miR-21 reporter inactive.
`COc1ccc(-c2cc(-c3ccc(C)cc3)n[nH]2)c(O)c1` gave TDP1 cell noCPT inconclusive, TDP1 cell CPT 26µM, uPA surface inh inactive and miR-21 reporter inactive.
CC(NC(=O)c1cc(F)c(F)cc1Cl)C1CC2CCC1C2 (configuration not stated) was read as TDP1 cell noCPT inconclusive, TDP1 cell CPT inactive, TDP1 block inactive, uPA surface inh inactive and miR-21 reporter inactive.
CC(NC(=O)c1cc(S(=O)(=O)N(C)C)ccc1Cl)C1CC2CCC1C2 (configuration not stated) was read as TDP1 cell noCPT 9.2µM, TDP1 cell CPT 16µM, TDP1 block inactive, uPA surface inh inactive and miR-21 reporter inactive.
`CC(C)c1cccc(-c2csc(C(O)c3cccc(Cl)c3)n2)c1` (configuration not stated) gave TDP1 cell noCPT 21µM and TDP1 cell CPT 23µM.
Screening CN(C)c1ccc(-c2csc(C(O)c3cccc(Cl)c3)n2)cc1 (configuration not stated) returned TDP1 cell noCPT 21µM and TDP1 cell CPT 21µM.
C/C(=N/OC(=O)c1ccc(C)cc1)c1ccc(N2C(=O)C3CCCCC3C2=O)cc1 (configuration not stated) was read as TDP1 cell noCPT 16µM, TDP1 cell CPT inconclusive, TDP1 block inactive, uPA surface inh inactive and miR-21 reporter inactive.
Screening CN(CC(=O)Nc1ccccc1Cl)C(=O)c1cc2c(s1)CCCCC2 returned TDP1 cell noCPT 16µM, TDP1 cell CPT inconclusive and uPA surface inh inactive.
For CN(CC(=O)Nc1ccccc1Br)C(=O)c1cc2c(s1)CCCCC2 the results were TDP1 cell noCPT inconclusive, TDP1 cell CPT inconclusive and uPA surface inh inactive.
For COc1ccc(NC(=O)CN(C)C(=O)c2cc3c(s2)CCC3)cc1 the results were TDP1 cell noCPT inactive, TDP1 cell CPT inactive, TDP1 block 1.3µM and uPA surface inh inactive.
C=CCNc1oc(-c2cccc(F)c2)nc1C#N was read as TDP1 block inactive and uPA surface inh inactive.
`Cc1ccc(-n2nc3c(n2)/C(=N/O)CC/C3=N\O)cc1` gave TDP1 cell noCPT 16µM, TDP1 cell CPT inconclusive, TDP1 block inactive, uPA surface inh inactive and miR-21 reporter inactive.
